# Biological target: m20
substance,measurement,value
anti BMPR-IA (Fab),Kd,13.4 nM
